Earlier results on one compound are cited in article PMC9243654 (Frontiers in Nutrition, 2022).

One may read the Log P as the decadic logarithm of the partition coefficient of the neutral form, usually between octanol and water.

Read-outs that look alike come from different tables or passages of the source.

For this data set the following is noted: ref PubChem database, cited from earlier work.

Take `COc1cc(C=O)ccc1O` [Vanillin]: the “Log P” value (compounds identified in LPLE extract) was 1.2 and the “Log P” value (compounds of ASFE extract) was 1.2.
